Results reported in patent US9040307B2, “Fluorescent pH detector system and related methods” (Blood Cell Storage, Inc., priority 2011, dated 2015).

Columns and labels:
Assay type in all cases: physicochemical
[1] = Absorbance and fluorescence of fluorophore/HSA conjugates in solution; conditions: 2.5 micromolar conjugate, 532 nm filter
[2] = Microwell crossover assay of SNAFL-1/HSA on Oxyphen discs; conditions: 4 mg/mL Oxyphen discs, 3.6:1
[3] = Stability and leaching of membrane-immobilized conjugates
Procedure: Fluorescent HSA conjugates with a 2.5:1 SNAFL-1:HSA offering ratio were prepared as described in Example 4 and diluted to provide concentrations of 0.05, 0.2, 1.0 and 4 mg/mL in phosphate buffered saline (PBS) (pH 7.4). 5 microliter drops were applied via a 20 microliter pipettor to the center of pre-punched porous discs (¼ inch diameter) that were laid on a bench top. The spotted discs were allowed to air dry (about 30 minutes) and then placed in separate desiccators overnight. The dried discs were washed in separate Eppendorf tubes with 2×1 mL of PBS and allowed to soak overnight in 1 mL of PBS. […] Alternatively the discs could be re-dried in desiccators and stored dry. […] The discs had fluorescent signals that were proportional to the concentration of labeled macromolecule applied to each one as measured by the fluorescence assay described in Example 9.
The fluorescent intensity was measured at 620 nm, the fluorescent maximum of the base form of the fluorophore. Excitation used a wide open setting on the halogen lamp that efficiently excites both acid and base forms of SNAFL-1. The reflected light from the source (unmodified disc) had the lowest intensity spectrum. The spectrum of the 0.05 mg/mL disc gave a small increase in fluorescence intensity.
EBIO-3/HSA conjugate was prepared as described in Example 6 at a ratio of 2:1. […]

## SNAFL-1/HSA: SNAFL-1 NHS ester conjugated to human serum albumin, various loadings, in solution or on membrane discs
[1]
  fluorescent isosbestic point for pH 6-7: 572 nm
[2]; pH 4
  crossover with pH 10 spectrum: 579 nm
[2]; pH 6
  crossover with pH 10 spectrum: 592 nm
[2]; pH 7
  crossover with pH 10 spectrum: 600 nm
[2]; pH 8
  crossover with pH 10 spectrum: 611 nm
[3]; 2.5:1, 1 mg/mL Oxyphen discs, 30 day PBS soak
  dissociation from disc surface in PBS solution: did not dissociate significantly
[3]; 2.5:1 on 0.1 micron Oxyphen discs
  stability of washed discs in PBS solution: no degradation after 30 days
